Results on five compounds are retold here after ChEMBL document CHEMBL4049435, “Development of a Series of Kynurenine 3-Monooxygenase Inhibitors Leading to a Clinical Candidate for the Treatment of Acute Pancreatitis” (J Med Chem, 2017).

Protein sequences, listed by entry. Tags and fused reporters are not part of them. Lines headed by an entry give the natural chain unless they say otherwise; changes in a name come on top.
UniProt O15229: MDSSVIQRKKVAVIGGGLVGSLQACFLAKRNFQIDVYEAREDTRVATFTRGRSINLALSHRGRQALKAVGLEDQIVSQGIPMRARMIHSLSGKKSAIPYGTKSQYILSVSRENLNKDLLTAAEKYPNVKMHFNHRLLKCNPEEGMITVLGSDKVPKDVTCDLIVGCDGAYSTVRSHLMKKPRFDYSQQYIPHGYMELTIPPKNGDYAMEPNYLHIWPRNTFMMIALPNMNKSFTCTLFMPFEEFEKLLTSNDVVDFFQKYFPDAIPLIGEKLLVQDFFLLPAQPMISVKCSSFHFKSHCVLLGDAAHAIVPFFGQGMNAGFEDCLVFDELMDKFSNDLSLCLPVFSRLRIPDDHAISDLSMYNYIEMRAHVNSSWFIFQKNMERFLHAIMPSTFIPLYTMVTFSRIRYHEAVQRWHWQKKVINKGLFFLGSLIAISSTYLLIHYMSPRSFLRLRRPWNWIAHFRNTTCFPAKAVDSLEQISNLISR

Test [1] concerns the target T1, Kynurenine 3-monooxygenase (Homo sapiens, UniProt O15229).
For test [2], the target named is T1, Kynurenine 3-monooxygenase. This is another data set of the same source.
For test [3], the target named is T1, Kynurenine 3-monooxygenase. Kind of test: Inhibition of full length human GST-tagged KMO expressed in baculovirus infected Sf9 insect cell membranes using kynurenine as substrate measured after 1 hr by RapidFire high-throughput mass spectrometric analysis.

In the case of `CC(Oc1cc2oc(=O)n(CCC(=O)O)c2cc1Cl)c1ccccn1` (stereo not given), inhibition in test [1] was half-maximal at 0.1 µM (IC50).
`C[C@@H](Oc1cc2oc(=O)n(CCC(=O)O)c2cc1Cl)c1ccccn1.NC(CO)(CO)CO`: the IC50 in test [2] was 0.2 µM.
`C[C@@H](Oc1cc2oc(=O)n(CCC(=O)O)c2cc1Cl)c1ccccn1` returned a Ki in test [3] of 0.0001 µM.
On to `C[C@H](Oc1cc2oc(=O)n(CCC(=O)O)c2cc1Cl)c1ccccn1.NC(CO)(CO)CO`, for which the IC50 in test [2] was 63.1 µM.
Still for that read-out and setting: the figure for `CC(Oc1cc2oc(=O)n(CCC(=O)O)c2cc1Cl)c1ccccn1.NC(CO)(CO)CO` (stereo not given) is 0.126 µM.
